# Results: patent US20040265846A1, “Adrenergic receptors” (DUKE UNIVERSITY, priority 2002, published 2004)
# Tested on: SNP G247R and wild type α1aAR
# Experiment: NE-induced receptor internalization (surface HA-tagged receptor)
# Details: NE 10 μM for 1 h, low-expressing cells
structure (smiles),measurement,value
"NC[C@H](O)c1ccc(O)c(O)c1 [NE, (−)-norepinephrine]","receptor internalization, G247R vs WT",at a similar extent
